pIC50: −log10 of the molar value.
Biological target: Voltage-gated inwardly rectifying potassium channel KCNH2 (Homo sapiens, UniProt Q12809)
Experiment: Inhibition of human ERG

Chains of the proteins cited; added tags and fusions are not shown. Lines headed by an entry give the natural chain unless they say otherwise; changes in a name come on top.
UniProt Q12809: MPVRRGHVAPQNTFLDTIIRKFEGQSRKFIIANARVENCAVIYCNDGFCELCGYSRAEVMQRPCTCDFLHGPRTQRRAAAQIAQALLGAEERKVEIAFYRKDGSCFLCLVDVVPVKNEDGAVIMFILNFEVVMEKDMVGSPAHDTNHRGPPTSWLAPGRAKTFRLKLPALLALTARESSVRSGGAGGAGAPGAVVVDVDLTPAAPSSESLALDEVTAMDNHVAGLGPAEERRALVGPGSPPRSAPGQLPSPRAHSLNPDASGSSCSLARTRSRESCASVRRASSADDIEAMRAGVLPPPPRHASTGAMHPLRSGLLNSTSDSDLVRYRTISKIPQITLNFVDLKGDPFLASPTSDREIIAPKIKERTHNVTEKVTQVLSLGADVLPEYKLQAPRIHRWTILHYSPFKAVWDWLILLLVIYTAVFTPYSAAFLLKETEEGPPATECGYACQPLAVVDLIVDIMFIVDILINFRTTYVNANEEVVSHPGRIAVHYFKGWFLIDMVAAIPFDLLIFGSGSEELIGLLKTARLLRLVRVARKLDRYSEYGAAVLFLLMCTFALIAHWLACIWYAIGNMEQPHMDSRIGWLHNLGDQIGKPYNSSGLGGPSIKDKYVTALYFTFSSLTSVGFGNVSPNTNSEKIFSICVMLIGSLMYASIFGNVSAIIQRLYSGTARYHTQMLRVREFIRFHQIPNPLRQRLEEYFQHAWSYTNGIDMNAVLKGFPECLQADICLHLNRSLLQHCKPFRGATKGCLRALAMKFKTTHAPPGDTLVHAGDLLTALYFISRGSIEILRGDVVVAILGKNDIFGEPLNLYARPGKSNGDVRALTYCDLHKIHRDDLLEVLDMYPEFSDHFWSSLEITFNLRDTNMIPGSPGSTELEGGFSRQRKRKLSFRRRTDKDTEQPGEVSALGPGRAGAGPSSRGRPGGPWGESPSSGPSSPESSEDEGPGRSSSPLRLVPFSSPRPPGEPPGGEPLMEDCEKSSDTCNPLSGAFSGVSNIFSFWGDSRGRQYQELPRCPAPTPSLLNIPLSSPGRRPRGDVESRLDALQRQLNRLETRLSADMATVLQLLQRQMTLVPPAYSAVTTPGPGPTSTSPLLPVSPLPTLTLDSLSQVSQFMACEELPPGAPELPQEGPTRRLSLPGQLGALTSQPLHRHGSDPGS

With `O=C1Cc2cc(CCN3CCN(c4nsc5ccccc45)CC3)c(Cl)cc2N1` [ZIPRASIDONE] the pIC50 was > 6.00.

Source: ChEMBL document CHEMBL1287767, “Experimental solubility profiling of marketed CNS drugs, exploring solubility limit of CNS discovery candidate” (Bioorg Med Chem Lett, 2010)
